Results as given in patent publication US9040725B2, “Benzocycloheptane and benzoxepine derivatives” (Janssen Pharmaceutica NV, priority 2008, dated 2015).

The chains behind the UniProt entries cited, without tags or fusion partners.
UniProt Q92847, whole entry: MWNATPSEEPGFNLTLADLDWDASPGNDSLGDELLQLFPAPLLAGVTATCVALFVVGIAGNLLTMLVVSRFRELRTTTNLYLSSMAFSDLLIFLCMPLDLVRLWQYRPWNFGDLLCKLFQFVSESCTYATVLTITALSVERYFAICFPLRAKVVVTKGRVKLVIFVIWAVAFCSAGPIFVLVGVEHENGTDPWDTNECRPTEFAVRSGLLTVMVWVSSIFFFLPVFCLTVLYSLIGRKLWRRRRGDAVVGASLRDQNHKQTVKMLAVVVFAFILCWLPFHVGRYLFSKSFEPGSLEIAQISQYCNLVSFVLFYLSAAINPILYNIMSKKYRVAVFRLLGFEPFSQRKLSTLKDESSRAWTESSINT

How the values were obtained:
[1] = target: GHS1A-receptor (Homo sapiens, UniProt Q92847); experiment: Ghrelin-agonism in HEK293 cells (intracellular calcium, FLIPR); assay type: cell-based; details: HEK293 cells permanently transfected with GHS1A-receptor, calcium fluorescence (fluo-4 or Kit-3), EC50 in M, tested form: oxalate
[2] = tested on: NMRI-mice; experiment: Acceleration of gastric emptying and small intestinal propulsion in NMRI-mice; assay type: in vivo; details: lowest active dose, subcutaneous, 30 min before phenol red test meal, tested form: oxalate
Experimental: Male NMRI-mice weighing around 25 gram were fasted for 20 h and had free access to drinking water. Test compounds were administered to the animals by subcutaneous route 30 min before they were given a test meal by oral gavage. The test meal consisted of 0.3 ml of a chocolate nutridrink solution (1.0 kcal/ml) containing phenol red marker (5 mg/ml). Fifteen min after administration of the meal, the mice were sacrificed by CO2 gas inhalation. The phenol red content remaining in the stomach (extracted from the stomach with NaOH) was determined at 557 nm in a spectrophotometer and expressed as extinction units. Small intestinal propulsion was determined as the distance traveled by the phenol red marker through the intestine and expressed as a percentage of total small intestinal length (from the pylorus to the ileo-cecal junction).
The lowest dose that was active for each parameter was noted as the lowest active dose (LAD). Table 12 discloses LAD values.

- pEC50 [1]: 5.5
SMILES: CN(C)CCC[C@@]1(O)c2ccccc2CCC[C@@H]1c1ccc(Cl)cc1 (single isomer, unassigned)
- LAD (mg/kg) Small intestinal propulsion ([2]; active when >60% of animals had phenol red front beyond 85% of small intestinal length): >10 mg/kg
- LAD (mg/kg) Gastric emptying ([2]; stomach content 15 min after meal, active when >60% of animals below 0.9 extinction units): >10 mg/kg
